Arrestin-AP2 inh = human beta-arrestin and AP2 interaction inhibition; inhibition, % at 10 µM; AID 504490; FITC-arrestin peptide / GST-AP2 beads, flow cytometry; AP2 beta2 appendage carries R879A mutation; 340,000 compounds, 0.31% hits;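 active means inhibition above a set limit, near 3 SD of compounds lacking own fluorescence, cut at about 54% in these data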;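 further: plate controls were DMSO wells for no effect and 5 µM unlabelled arrestin peptide for full effect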
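System: GST-tagged AP2 beta2-adaptin appendage (R879A) on 4 µm glutathione beads / Reagent: FITC-arrestin peptide, 50 nM / Detection: HyperCyt-sampled flow cytometry, FL1 channel, ex 488/em 535 nm / Timing: 12 min plus 1 h, RT / Buffer or medium: PBS plus Tween 20 (0.05%) and BSA (0.1%)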
Rce1 inhib = yeast Ras-converting enzyme inhibition; calls only; yeast membranes, quenched prenylated peptide cleavage fluorescence; 290,000 compounds, 0.27% hits; AID 2563; Q03530;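 active means fall in fluorescence gain of 50% or more versus controls, with final raw signal at or below 3038400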;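 further: plate controls were neutral control wells for no effect and wells lacking membranes for full effect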
Yeast UUG start-1 = yeast start codon fidelity modulation | S. cerevisiae UUG-firefly luciferase reporter, luminescence/redox ratio | activity score, % at 18.7 µM | hit rate 0.13% among 350,000 | AID 602363;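 active means replicate mean at a twofold rise or more, about +100% in these data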;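 further: firefly luciferase made from a UUG start codon reports start codon fidelity; reporter light over untreated wells divided by growth signal over untreated wells; some hits fall short of that in this replicate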
TbMetRS inhib = blocks T. brucei methionyl-tRNA synthetase activity. inhibition, % at 11.9 µM. purified T. brucei MetRS, ATP depletion, Kinase-Glo luminescence. 360,000 compounds, 0.4% hits;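 active means inhibition above a per-plate cutoff of the control wells' mean inhibition plus 3 SD, cut at about 5.5% in these data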;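 further: 0% = DMSO wells median and 100% = median of wells with control inhibitor compound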
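Test system – parasite MetRS enzyme · Reagent – substrates ATP, L-methionine and bulk Escherichia coli tRNA · Doses – 11.9 µM compound single dose, 0.9% DMSO · Times – 15 min enzyme-compound preincubation, 2 h reaction, 10 min detection, 25 °C · Signal – Kinase-Glo luminescence, ATP depletion format · Controls – DMSO-only wells as low control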
Pemphigus Ab inh = blocks pemphigus antibody binding to human desmoglein-3. P32926. DSG3-coupled beads, scFv-anti-DSG3-GFP binding, flow cytometry; hits give low values. binding (percent of control), % at 10 µM. 310,000 compounds, 0.48% hits. AID 588358;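 active means binding more than 3 SD below its plate's average and above zero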;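 further: hits lower antibody fragment binding to DSG3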
Yeast UUG start-2 = modulators of start codon recognition fidelity in yeast; shares compounds with Yeast UUG start-1; S. cerevisiae UUG-start firefly luciferase, luminescence, 4 h; 100% means double the DMSO signal; activation, % at 38 µM; 540 tested, under 10 active; AID 652061;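 active means signal increase whose fitted curve reaches an absolute level of 40 at a concentration under 10 µM; inactive means activity opposite to the expected increase, or the rest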
The depositor's hits bear a star. A selection: hits, their analogues and other compounds. The true share with any hit is near 1.2%.

What do the screens show for `OC(CCN1CCCCC1)(c1ccccc1)C1C[C@@H]2C=C[C@H]1C2` (stereo not given in full)?
Arrestin-AP2 inh: 2; Yeast UUG start-1: -15; TbMetRS inhib: 0; Pemphigus Ab inh: 113

Results for CN1CCN(CC#CC(C)(O)C2CC3C=CC2C3)CC1 (stereo not given) ?
Arrestin-AP2 inh: 13; Rce1 inhib: inactive; Yeast UUG start-1: 166*; TbMetRS inhib: 0; Pemphigus Ab inh: 111; Yeast UUG start-2: 0

Results for COc1ccc(NC(=O)Nc2ccc3c(c2)C(=O)N([C@H](C)CO)C[C@@H](C)[C@H](CN(C)C(=O)Nc2ccc4c(c2)OCO4)O3)cc1 ?
Yeast UUG start-1: 4

What do the screens show for `CC(C)CC#Cc1cnc2c(c1)C(=O)N([C@H](C)CO)C[C@@H](C)[C@H](CN(C)Cc1ccccn1)O2`?
Yeast UUG start-1: 144*; Yeast UUG start-2: inactive

How did C/C=C/c1cnc2c(c1)C(=O)N([C@@H](C)CO)C[C@@H](C)[C@@H](CN(C)C(=O)Cc1ccccn1)O2 do in these assays?
Yeast UUG start-1: 143*; Yeast UUG start-2: inactive

How did C/C=C/c1cnc2c(c1)C(=O)N([C@H](C)CO)C[C@H](C)[C@@H](CN(C)C(=O)Cc1ccccn1)O2 do in these assays?
Yeast UUG start-1: 3

Results for C[C@H]1CN([C@@H](C)CO)C(=O)c2cc(NC(=O)Nc3cccc4ccccc34)ccc2O[C@@H]1CN(C)S(C)(=O)=O ?
Yeast UUG start-1: 24

How did CCN(CC)c1ccc(C=Nc2ccc(C#N)cc2)c(O)c1 do in these assays?
Arrestin-AP2 inh: 13; Rce1 inhib: inactive; Yeast UUG start-1: 466*; TbMetRS inhib: -2; Pemphigus Ab inh: 102; Yeast UUG start-2: -6

How did COCC(=O)N(C)C[C@H]1Oc2ncc(C#Cc3ccc(OC)cc3)cc2C(=O)N([C@H](C)CO)C[C@@H]1C do in these assays?
Yeast UUG start-1: 18

Results for Cc1ccccc1NC(=O)/C(=C/c1ccccc1)c1ccccc1 ?
Arrestin-AP2 inh: 3; Rce1 inhib: inactive; Yeast UUG start-1: 102*; TbMetRS inhib: 0; Pemphigus Ab inh: 101; Yeast UUG start-2: -1

What do the screens show for `O=C(Nc1ccccc1)/C(=C/c1ccccc1)c1ccccc1`?
Arrestin-AP2 inh: -4; Rce1 inhib: inactive; Yeast UUG start-1: -15; TbMetRS inhib: 0

What do the screens show for `CCN(CC)CCNC(=O)Cc1nn(CC)c(=O)c2ccccc12`?
Arrestin-AP2 inh: 8; Rce1 inhib: inactive; Yeast UUG start-1: -1; TbMetRS inhib: -1; Pemphigus Ab inh: 95; Yeast UUG start-2: 6

Results for CCN(CC)CCNC(=O)C(C)c1nn(CC)c(=O)c2ccccc12 (stereo not given) ?
Arrestin-AP2 inh: 14; Rce1 inhib: inactive; TbMetRS inhib: 0; Yeast UUG start-2: -5

Results for CCN(CC)CCNC(=O)Cn1nc(Cc2ccccc2)c2ccccc2c1=O ?
Arrestin-AP2 inh: 5; Rce1 inhib: inactive; Yeast UUG start-1: -18; TbMetRS inhib: -1; Pemphigus Ab inh: 102

How did COc1ccc(C2=NOC(C(=O)NO)C2)cc1OC1CCCC1 (stereo not given) do in these assays?
Yeast UUG start-1: 1

Results for O=C(O)C(c1ccccc1)C(c1ccccc1)c1ccccc1 (stereo not given) ?
Arrestin-AP2 inh: 0; Rce1 inhib: inactive; Yeast UUG start-1: 431*; TbMetRS inhib: 0; Pemphigus Ab inh: 95; Yeast UUG start-2: 2

How did CC12CCC(C(=O)N(CC(O)CN3CCN(Cc4ccccc4)CC3)C1=O)C2(C)C (stereo not given) do in these assays?
Arrestin-AP2 inh: 11; Rce1 inhib: inactive; Yeast UUG start-1: 102*; TbMetRS inhib: 1; Pemphigus Ab inh: 113; Yeast UUG start-2: -5

Results for CN(CC(=O)Nc1cc([N+](=O)[O-])ccc1Cl)Cc1ccc(Br)cc1 ?
Arrestin-AP2 inh: 7; Rce1 inhib: inactive; Yeast UUG start-1: 518*; TbMetRS inhib: -1; Pemphigus Ab inh: 103; Yeast UUG start-2: 3

How did CCc1cccc2c(C(=O)C(F)(F)F)cn(CC(=O)NCC3CCCO3)c12 (stereo not given) do in these assays?
Arrestin-AP2 inh: 5; TbMetRS inhib: 0; Pemphigus Ab inh: 109; Yeast UUG start-2: -6

How did CC(C)C(=O)c1cn(CC(=O)NCC2CCCO2)c2ccccc12 (stereo not given) do in these assays?
Arrestin-AP2 inh: 30; Rce1 inhib: inactive; Yeast UUG start-1: 449*; TbMetRS inhib: 0; Pemphigus Ab inh: 94; Yeast UUG start-2: 8

What do the screens show for `O=c1c2c(n3cnnc3n1-c1ccccc1)-c1ccccc1CC21CCCCC1`?
Arrestin-AP2 inh: 23; Rce1 inhib: inactive; Yeast UUG start-1: active; TbMetRS inhib: 0; Pemphigus Ab inh: 103; Yeast UUG start-2: -9

How did Cc1cc(O)ccc1C1(c2ccc(O)cc2C)OC(=O)c2ccccc21 do in these assays?
Arrestin-AP2 inh: 0; Rce1 inhib: inactive; Yeast UUG start-1: 444*; TbMetRS inhib: 0; Pemphigus Ab inh: 103; Yeast UUG start-2: 6

How did C[C@H]1CN([C@@H](C)CO)C(=O)Cc2cc(NC(=O)CCC(F)(F)F)ccc2O[C@H]1CN(C)C(=O)Nc1ccccc1 do in these assays?
Yeast UUG start-1: 8

How did COc1ccc(NC(=S)N(CCc2ccncc2)C(C)C)cc1Cl do in these assays?
Yeast UUG start-1: -15; TbMetRS inhib: 0; Pemphigus Ab inh: 102

What do the screens show for `CC(C)N(CCc1ccncc1)C(=S)Nc1ccc(F)c(Cl)c1`?
Arrestin-AP2 inh: -9; Rce1 inhib: inactive; Yeast UUG start-1: 263*; TbMetRS inhib: 1; Pemphigus Ab inh: 101; Yeast UUG start-2: -11

What do the screens show for `Cc1ccc(S(=O)(=O)N(C)C[C@@H]2Oc3ccc(NC(=O)CCN4CCOCC4)cc3CC(=O)N([C@H](C)CO)C[C@H]2C)cc1`?
Yeast UUG start-1: 9

Results for COc1ccc(NC(=O)N(C)C[C@H]2Oc3ncc(C#CCN(C)C)cc3C(=O)N([C@@H](C)CO)C[C@@H]2C)cc1 ?
Yeast UUG start-1: -4

What do the screens show for `CCOc1ccc(C=NC23CN4CN(CN(C4)C2)C3)cc1`?
Arrestin-AP2 inh: 0; Rce1 inhib: inactive; Yeast UUG start-1: 462*; TbMetRS inhib: -1; Pemphigus Ab inh: 108; Yeast UUG start-2: 8

Results for CC(C)C(=O)Nc1cccc(N2CCN(CCCN3C(=O)C4CCCCN4C3=O)CC2)c1 (stereo not given) ?
Arrestin-AP2 inh: 8; Yeast UUG start-1: 105*; TbMetRS inhib: 0; Pemphigus Ab inh: 110; Yeast UUG start-2: -3

How did COc1cccc(NC(=O)N(C)C[C@@H]2Oc3ncc(C4=CCCCC4)cc3C(=O)N([C@H](C)CO)C[C@H]2C)c1 do in these assays?
Yeast UUG start-1: -4

Entries shown so far that contain a Cl atom, in the order listed:
Results for CN(CC(=O)Nc1cc([N+](=O)[O-])ccc1Cl)Cc1ccc(Br)cc1 ?
Arrestin-AP2 inh: 7; Rce1 inhib: inactive; Yeast UUG start-1: 518*; TbMetRS inhib: -1; Pemphigus Ab inh: 103; Yeast UUG start-2: 3

How did COc1ccc(NC(=S)N(CCc2ccncc2)C(C)C)cc1Cl do in these assays?
Yeast UUG start-1: -15; TbMetRS inhib: 0; Pemphigus Ab inh: 102

What do the screens show for `CC(C)N(CCc1ccncc1)C(=S)Nc1ccc(F)c(Cl)c1`?
Arrestin-AP2 inh: -9; Rce1 inhib: inactive; Yeast UUG start-1: 263*; TbMetRS inhib: 1; Pemphigus Ab inh: 101; Yeast UUG start-2: -11
